Source: patent US20250101129A1, “AFFINITY SUBSTANCE, COMPOUND, AND ANTIBODY AND THEIR SALTS” (Ajinomoto Co., Inc., priority 2022, published 2025)

Experiments:
[1] = test system: HER2-positive SKBR-3 cells; assay: Flow cytometry binding to antigens on SKBR-3 cells; format: cell-based
[2] = test system: CD3-activated human T cells containing PD-1-positive cells; assay: Flow cytometry binding to CD3-activated human T cells; format: cell-based; settings: primary antibody final concentration 20 g/mL as printed, Alexa Fluor 488 anti-human IgG secondary
Experimental: The cells used were CD3-activated human T cells containing HER2-positive SKBR-3 cells, EGFR-positive A-431 cells, and PD-1-positive cells.
200,000 cells cultured in D-MEM medium (Thermo Fisher Scientific, Inc.) supplemented with 10% FBS (Thermo Fisher Scientific, Inc.) were collected, and 20 μL of PBS containing Human TruStain FcX (Biolegend) was added, followed by blocking of Fc receptors on ice for 10 minutes. The primary antibody reaction was performed by adding the above-described antibodies as primary antibodies to a cell staining buffer (PBS containing 1% FBS) to a final concentration of 20 µg/mL, adding 20 μL of the mixtures to the cells, and incubating them for 20 minutes on ice. The cells after the primary antibody reaction were washed twice with the cell staining buffer. The second antibody reaction was performed by adding 40 μL of Goat anti-Human IgG (H+L) Cross-Adsorbed Secondary Antibody, Alexa Fluor™488 (Thermo Fisher Scientific, Inc.) diluted with the cell staining buffer to 10 µg/mL as the second antibody to the cells, and incubating the cells on ice for 20 minutes. The cells were washed twice with the cell staining buffer, and then subjected to analysis using Attune NxT Flow Cytometer (Thermo Fisher Scientific, Inc.).

cetuximab
binding to SKBR-3 cells (in words) [1]: only bound to A-431 cells | cells in which fluorescence was observed (positive rate), CD3-activated human T cells [2]: Little or no fluorescence
